doi:10.1101/2022.03.10.483824

Chains of the proteins cited; added tags and fusions are not shown. Lines headed by an entry give the natural chain unless they say otherwise; changes in a name come on top.
UniProt P04461: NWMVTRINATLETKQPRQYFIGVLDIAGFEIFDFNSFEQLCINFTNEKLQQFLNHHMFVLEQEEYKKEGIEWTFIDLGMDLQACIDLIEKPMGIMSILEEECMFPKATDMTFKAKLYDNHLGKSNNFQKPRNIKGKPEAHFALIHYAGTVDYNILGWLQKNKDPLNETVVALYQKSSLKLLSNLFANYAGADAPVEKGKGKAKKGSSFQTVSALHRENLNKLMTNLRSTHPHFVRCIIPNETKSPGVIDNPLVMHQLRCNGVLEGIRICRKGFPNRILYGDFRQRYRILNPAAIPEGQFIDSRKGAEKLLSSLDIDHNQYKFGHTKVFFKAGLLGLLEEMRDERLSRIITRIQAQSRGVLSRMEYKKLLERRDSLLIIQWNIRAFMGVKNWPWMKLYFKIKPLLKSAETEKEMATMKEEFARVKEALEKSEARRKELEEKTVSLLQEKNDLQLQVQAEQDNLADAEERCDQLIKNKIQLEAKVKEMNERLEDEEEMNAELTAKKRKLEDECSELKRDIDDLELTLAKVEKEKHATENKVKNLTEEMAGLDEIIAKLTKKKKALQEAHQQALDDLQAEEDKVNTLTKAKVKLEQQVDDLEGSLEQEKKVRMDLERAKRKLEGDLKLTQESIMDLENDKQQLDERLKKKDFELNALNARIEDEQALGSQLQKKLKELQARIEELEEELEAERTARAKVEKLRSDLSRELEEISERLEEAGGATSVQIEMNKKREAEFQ

Biological target: Full length native slow skeletal myosin II from rabbit M. soleus (rabbit) (UniProt P04461)
Experiment: optical trapping

Biotinylated actin filament (chicken G actin polymerised with biotinylated G actin) (from UniProt P68139 1-377) (natural protein)
maximum AM detachment rate (kcat, at saturating ATP): 29.3 s⁻¹
